Measurements published in patent US7612082B2, “Prostaglandin EP4 antagonists” (Allergan, Inc., priority 2004, dated 2009).

Chains of the proteins cited; added tags and fusions are not shown. Lines headed by an entry give the natural chain unless they say otherwise; changes in a name come on top.
UniProt P43116: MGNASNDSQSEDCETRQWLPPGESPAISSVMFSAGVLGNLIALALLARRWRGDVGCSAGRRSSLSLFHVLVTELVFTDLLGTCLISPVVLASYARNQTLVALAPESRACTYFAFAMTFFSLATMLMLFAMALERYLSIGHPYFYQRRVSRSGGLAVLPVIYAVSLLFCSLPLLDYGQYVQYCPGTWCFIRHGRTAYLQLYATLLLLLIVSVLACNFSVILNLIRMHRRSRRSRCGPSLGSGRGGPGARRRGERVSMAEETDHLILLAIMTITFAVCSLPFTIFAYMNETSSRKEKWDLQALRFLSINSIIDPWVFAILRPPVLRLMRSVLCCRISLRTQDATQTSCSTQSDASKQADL

Biological target: T1, hEP2 (Homo sapiens, UniProt P43116)
T1 construct: expressed in transfected cells; host or cells: HEK (by analogy HEK-293(EBNA))
Experiment: Calcium signal (FLIPR) assay, hEP2 (HEK)
Assay type: cell-based
Settings: agonist potency, cells coexpress chimeric Gqs5, read-out: Standard agonist hEP2 (HEK)
Description: Cells were then washed twice with HBSS-HEPES buffer (Hanks Balanced Salt Solution without bicarbonate and phenol red, 20 mM HEPES, pH 7.4) using a Denley Cellwash plate washer (Labsystems; Franklin, Mass.). After 45-60 min of dye-loading in the dark using the calcium-sensitive dye Fluo-4 AM, at a final concentration of 2 μM, plates were washed four times with HBSS-HEPES buffer to remove excess dye and leaving 100 μl buffer in each well. Plates were then placed into a FLIPR™ instrument and were allowed to equilibrate at 37° C. Drug solution was added in a 50 μl volume to each well to give the desired final concentration. Cells were excited with an Argon laser at 488 nm, and emission was measured through a 510-570 nm bandwidth emission filter (FLIPR™, Molecular Devices, Sunnyvale, Calif.). The peak increase in fluorescence intensity was recorded for each well. […] A similar analysis was carried out for the other prostaglandin receptors, and for compound 2.

CCCCC[C@H](O)/C=C/[C@H]1[C@H](O)CC(=O)[C@@H]1C/C=C\CCCC(=O)O [PGE2, Prostaglandin E2, reference compound]
EC50: 2.5 nM
